Measurements taken from paper PMC11859423, “Fluorescent Probes to Image the KCa3.1 Channel in Tumor Cells” (Pharmaceutics, 2025).

Key:
KCa3.1 channels [1] = conditions: read-out: IC50 to block KCa3.1 channels; cited from earlier work
KCa3.1 channels [2] = assay: Block of KCa3.1 channels (literature IC50 values); type: biochemical; conditions: from literature IC50 values

## Clc1ccccc1C(c1ccccc1)(c1ccccc1)n1cccn1 [TRAM-34]
KCa3.1 channels [1]
  IC50: 20 nM
KCa3.1 channels [2]
  fold more potent than clotrimazole to block KCa3.1 channels: 5–10 fold
